Measurements published in patent publication US20190022152A1, “MICROBIOME RESPONSE TO AGENTS” (Yeda Research and Development Co., Ltd., priority 2014, published 2019).
Read-outs that look alike come from different tables or passages of the source.

Tests used:
fecal microbiota = conditions: fecal samples, 11 weeks consumption
Method: (§1) Illumina sequence reads were mapped to the human microbiome reference genome database of the Human Microbiome Project [www(dot)hmpdacc(dot)org/HMREFG/^32], and to a gut microbial gene catalogue^33 using GEM mapper^58 with the following parameters: • -m 3 -s 0 -q offset-33 -gem-quality-threshold 26
(§2) Microbial species abundance was measured as the fraction of reads that mapped to a single species in the database. An EM algorithm adapted from Pathoscope^59 was employed to determine the correct assignment of reads that mapped to more than one species. We considered only species for which at least 10% of the genome was covered (each coverage bin was 10,000-bp long) in at least one of the growth conditions (saccharin, water, or glucose). Reads mapped to the gut microbial gene catalogue were assigned a KEGG^34,35 ID according to the mapping available with the catalogue. Genes were subsequently mapped to KEGG pathways, and only pathways whose gene coverage was above 0.2 were included.

[1] = tested on: fecal microbiota KEGG pathways; assay: Shotgun metagenomic sequencing: KEGG pathway abundance (Table 2); design: species or system mice; conditions: In vivo (week 11/week 0)
Method: as §1, §2

SMILES: OC[C@H]1OC(O)[C@H](O)[C@@H](O)[C@@H]1O (some centres unmarked) [Glucose]
- Fold change (week 11/week 0) in relative species abundance (fecal microbiota; Symbol BACT_22, Number 639): 0.99
- Fold change (week 11/week 0) in relative species abundance (fecal microbiota; Symbol BACT_38, Number 780): 1.03
- Fold change (week 11/week 0) in relative species abundance (fecal microbiota; Symbol BACT_142, Number 843): 1.01
- Fold change (week 11/week 0) in relative species abundance (fecal microbiota; Symbol BACT_172, Number 768): 1.44
- Fold change (week 11/week 0) in relative species abundance (fecal microbiota; Symbol BACT_194, Number 846): 0.95
- Fold change (week 11/week 0) in relative species abundance (fecal microbiota; Symbol BACT_196, Number 395): 1.04
- Fold change (week 11/week 0) in relative species abundance (fecal microbiota; Symbol BACT_371, Number 960): 1.05
- Fold change (week 11/week 0) in relative species abundance (fecal microbiota; Symbol BACT_374, Number 805): 1.34
- Fold change (week 11/week 0) in relative species abundance (fecal microbiota; Symbol BACT_392, Number 915): 1.00
- Fold change (week 11/week 0) in relative species abundance (fecal microbiota; Symbol BACT_393, Number 932): 1.30
- Fold change (week 11/week 0) in relative species abundance (fecal microbiota; Symbol BACT_397, Number 914): 1.35
- Fold change (week 11/week 0) in relative species abundance (fecal microbiota; Symbol BACT_409, Number 845): 1.44
- Fold change (week 11/week 0) in relative species abundance (fecal microbiota; Symbol BACT_418, Number 749): 1.35
- Fold change (week 11/week 0) in relative species abundance (fecal microbiota; Symbol BACT_586, Number 849): 1.33
- Fold change (week 11/week 0) in relative species abundance (fecal microbiota; Symbol BACT_632, Number 871): 1.02
- Fold change (week 11/week 0) in relative species abundance (fecal microbiota; Symbol BACT_686, Number 1007): 1.06
- Fold change (week 11/week 0) in relative species abundance (fecal microbiota; Symbol BACT_769, Number 610): 0.96
- Fold change (week 11/week 0) in relative species abundance (fecal microbiota; Symbol BACT_931, Number 1088): 0.98
- Fold change (week 11/week 0) in relative species abundance (fecal microbiota; Symbol BACT_1025, Number 751): 0.98
- Fold change (week 11/week 0) in relative species abundance (fecal microbiota; Symbol BACT_1043, Number 948): 1.27
- Fold change (week 11/week 0) in relative species abundance (fecal microbiota; Symbol BACT_1314, Number 1399): 1.41
- Fold change (week 11/week 0) in relative species abundance (fecal microbiota; Symbol BACT_1315, Number 1395): 1.09
- Fold change (week 11/week 0) in relative species abundance (fecal microbiota; Symbol BACT_1496, Number 1321): 1.32
- Fold change (week 11/week 0) in relative species abundance (fecal microbiota; Symbol BACT_1596, Number 1502): 1.39
- Fold change (week 11/week 0) in relative species abundance (fecal microbiota; Symbol BACT_3056, Number 5836): 1.00
- Fold change (week 11/week 0) in relative species abundance (fecal microbiota; Symbol BACT_3092, Number 5793): 1.26
- Fold change (week 11/week 0) in relative species abundance (fecal microbiota; Symbol EUKY_22, Number 1758): 1.38
- Fold change (week 11/week 0) in relative species abundance (fecal microbiota; Symbol EUKY_141, Number 1875): 1.36
- Log_fold change: 2-Oxocarboxylic acid metabolism [1]: −0.04
- Log_fold change: ABC transporters [1]: 0.25
- Log_fold change: Alanine, aspartate and glutamate metabolism [1]: −0.04
- Log_fold change: Amino sugar and nucleotide sugar metabolism [1]: 0.00
- Log_fold change: Aminoacyl-tRNA biosynthesis [1]: 0.00
- Log_fold change: Aminobenzoate degradation [1]: 0.00
- Log_fold change: Arginine and proline metabolism [1]: −0.01
- Log_fold change: Ascorbate and aldarate metabolism [1]: −0.13
- Log_fold change: Atrazine degradation [1]: −0.03
- Log_fold change: Bacterial chemotaxis [1]: 0.06
- Log_fold change: Bacterial secretion system [1]: 0.03
- Log_fold change: Base excision repair [1]: 0.09
- Log_fold change: Benzoate degradation [1]: 0.02
- Log_fold change: Biosynthesis of amino acids [1]: −0.01
- Log_fold change: Biosynthesis of siderophore group nonribosomal peptides [1]: −0.19
- Log_fold change: Biosynthesis of unsaturated fatty acids [1]: 0.12
- Log_fold change: Biotin metabolism [1]: −0.08
- Log_fold change: Bisphenol degradation [1]: 0.03
- Log_fold change: Butanoate metabolism [1]: 0.01
- Log_fold change: CS-Branched dibasic acid metabolism [1]: 0.03
- Log_fold change: Caprolactam degradation [1]: 0.03
- Log_fold change: Carbon fixation in photosynthetic organisms [1]: −0.03
- Log_fold change: Carbon fixation pathways in prokaryotes [1]: −0.04
- Log_fold change: Carbon metabolism [1]: 0.02
- Log_fold change: Cell cycle-Caulobacter [1]: 0.05
- Log_fold change: Chloroalkane and chloroalkene degradation [1]: 0.10
- Log_fold change: Citrate cycle (TCA cycle) [1]: −0.07
- Log_fold change: Cyanoamino acid metabolism [1]: −0.07
- Log_fold change: Cysteine and methionine metabolism [1]: 0.01
- Log_fold change: D-Alanine metabolism [1]: 0.25
- Log_fold change: D-Arginine and D-ornithine metabolism [1]: 0.28
- Log_fold change: D-Glutamine and D-glutamate metabolism [1]: 0.01
- Log_fold change: DDT degradation [1]: 0.34
- Log_fold change: DNA replication [1]: 0.02
- Log_fold change: Dioxin degradation [1]: 0.05
- Log_fold change: Drug metabolism-other enzymes [1]: 0.07
- Log_fold change: Ether lipid metabolism [1]: −0.13
- Log_fold change: Fatty acid biosynthesis [1]: −0.07
- Log_fold change: Fatty acid degradation [1]: 0.00
- Log_fold change: Fatty acid metabolism [1]: −0.08
- Log_fold change: Flagellar assembly [1]: 0.06
- Log_fold change: Folate biosynthesis [1]: −0.08
- Log_fold change: Fructose and mannose metabolism [1]: 0.03
- Log_fold change: Galactose metabolism [1]: 0.06
- Log_fold change: Geraniol degradation [1]: −0.14
- Log_fold change: Glutathione metabolism [1]: 0.40
- Log_fold change: Glycerolipid metabolism [1]: 0.19
- Log_fold change: Glycerophospholipid metabolism [1]: 0.20
- Log_fold change: Glycine, serine and threonine metabolism [1]: 0.03
- Log_fold change: Glycolysis/Gluconeogenesis [1]: 0.10
- Log_fold change: Glycosaminoglycan degradation [1]: −0.01
- Log_fold change: Glycosphingolipid biosynthesis-globoseries [1]: 0.03
- Log_fold change: Glyoxylate and dicarboxylate metabolism [1]: 0.03
- Log_fold change: Histidine metabolism [1]: −0.08
- Log_fold change: Homologous recombination [1]: −0.03
- Log_fold change: Inositol phosphate metabolism [1]: −0.06
- Log_fold change: Limonene and pinene degradation [1]: −0.02
- Log_fold change: Lipoicacid metabolism [1]: 0.09
- Log_fold change: Lipopolysaccharide biosynthesis [1]: −0.09
- Log_fold change: Lysine biosynthesis [1]: 0.02
- Log_fold change: Lysine degradation [1]: 0.06
- Log_fold change: Methane metabolism [1]: 0.05
- Log_fold change: Mismatch repair [1]: 0.03
- Log_fold change: Naphthalene degradation [1]: 0.00
- Log_fold change: Nicotinate and nicotinamide metabolism [1]: 0.00
- Log_fold change: Nitrogen metabolism [1]: −0.04
- Log_fold change: Nitrotoluene degradation [1]: 0.21
- Log_fold change: Novobiocin biosynthesis [1]: 0.04
- Log_fold change: Nucleotide excision repair [1]: 0.00
- Log_fold change: One carbon pool by folate [1]: −0.02
- Log_fold change: Other glycan degradation [1]: −0.04
- Log_fold change: Oxidative phosphorylation [1]: 0.00
- Log_fold change: Pantothenate and CoA biosynthesis [1]: 0.00
- Log_fold change: Penicillin and cephalosporin biosynthesis [1]: 0.05
- Log_fold change: Pentose and glucuronate interconversions [1]: −0.05
- Log_fold change: Pentose phosphate pathway [1]: 0.12
- Log_fold change: Peptidoglycan biosynthesis [1]: 0.05
- Log_fold change: Phenylalanine metabolism [1]: 0.04
- Log_fold change: Phenylalanine, tyrosine and tryptophan biosynthesis [1]: −0.05
- Log_fold change: Phosphonate and phosphinate metabolism [1]: 0.09
- Log_fold change: Phosphotransferase system (PTS) [1]: 0.60
- Log_fold change: Porphyrin and chlorophyll metabolism [1]: 0.01
- Log_fold change: Propanoate metabolism [1]: 0.01
- Log_fold change: Protein export [1]: −0.02
- Log_fold change: Proximal tubule bicarbonate reclamation [1]: 0.05
- Log_fold change: Purine metabolism [1]: 0.02
- Log_fold change: Pyrimidine metabolism [1]: 0.01
- Log_fold change: Pyruvate metabolism [1]: 0.06
- Log_fold change: RNA degradation [1]: −0.01
- Log_fold change: Riboflavin metabolism [1]: −0.04
- Log_fold change: Ribosome [1]: −0.01
- Log_fold change: Selenocompound metabolism [1]: 0.09
- Log_fold change: Sphingolipid metabolism [1]: −0.03
- Log_fold change: Starch and sucrose metabolism [1]: 0.00
- Log_fold change: Streptomycin biosynthesis [1]: −0.04
- Log_fold change: Styrene degradation [1]: 0.31
- Log_fold change: Sulfur metabolism [1]: 0.12
- Log_fold change: Sulfur relay system [1]: 0.22
- Log_fold change: Synthesis and degradation of ketone bodies [1]: 0.42
- Log_fold change: Taurine and hypotaurine metabolism [1]: −0.02
- Log_fold change: Terpenoid backbone biosynthesis [1]: 0.03
- Log_fold change: Tetracycline biosynthesis [1]: 0.36
- Log_fold change: Thiamine metabolism [1]: 0.04
- Log_fold change: Tropane, piperidine and pyridine alkaloid biosynthesis [1]: 0.06
- Log_fold change: Tryptophan metabolism [1]: 0.13
- Log_fold change: Two−component system [1]: 0.02
- Log_fold change: Tyrosine metabolism [1]: 0.02
- Log_fold change: Ubiquinone and other terpenoid-quinone biosynthesis [1]: 0.09
- Log_fold change: Valine, leucine and isoleucine biosynthesis [1]: −0.05
- Log_fold change: Valine, leucine and isoleucine degradation [1]: −0.09
- Log_fold change: Vibriocholerae pathogenic cycle [1]: −0.05
- Log_fold change: Vitamin B6 metabolism [1]: −0.07
- Log_fold change: Xylene degradation [1]: 0.03
- Log_fold change: beta-Alanine metabolism [1]: −0.02
- Log_fold change: beta-Lactam resistance [1]: −0.01
